Legend:
Type in all cases: cell-based
[1] = molecular target: T1, EGFR (Homo sapiens, UniProt P00533); experiment: Ligand-induced BRET between EGFR/Rluc8 and Grb2/Venus (+ pcDNA3), Grb2 recruitment
T1 construct: host or cells: HEK293FT
Description: (§1) HEK293FT cells (Life Technologies) were maintained at 37°C in 5% CO2 and complete media (Dulbecco's modified Eagle's medium (DMEM) containing 0.3 mg/ml glutamine, 100 IU/ml penicillin and 100 µg/ml streptomycin (GIBCO BRL, Carlsbad, CA, USA)) supplemented with 10% foetal calf serum (FCS) and 400 µg/ml Geneticin (Gibco). Transient transfections were carried out 24 h after seeding about 550,000 cells/well of a 6-well plate. Genejuice (Merck, Kilsyth, Australia) transfection reagent was used according to the manufacturer's instructions. Cells were harvested with 0.05% Trypsin-EDTA (Gibco).
(§2) Following initial titration of cDNA amounts (data not shown), two ratios were selected for the heteromer combinations shown in Figure 2. […] 24 h post-transfection, cells were harvested into 96-well plates (Nunc) and 48 h post-transfection, cells were incubated at 37°C, 5% CO2 for 2 h with 30 µM EnduRen (Promega) to ensure substrate equilibrium was reached. BRET measurements were taken at 37°C using the VICTOR Light plate reader with Wallac 1420 software (PerkinElmer, Glen Waverley, Victoria, Australia). Filtered light emissions were sequentially measured at 400–475 and 520–540 nm. The BRET signal was calculated by subtracting the ratio of 520–540 nm emission over 400–475 nm emission for a vehicle-treated cell sample from the same ratio for a second aliquot of the same cells treated with agonist, as described previously, [35].

Protein sequences, listed by entry. Tags and fused reporters are not part of them. Residues count along the entry.
UniProt P21860, 20-1342: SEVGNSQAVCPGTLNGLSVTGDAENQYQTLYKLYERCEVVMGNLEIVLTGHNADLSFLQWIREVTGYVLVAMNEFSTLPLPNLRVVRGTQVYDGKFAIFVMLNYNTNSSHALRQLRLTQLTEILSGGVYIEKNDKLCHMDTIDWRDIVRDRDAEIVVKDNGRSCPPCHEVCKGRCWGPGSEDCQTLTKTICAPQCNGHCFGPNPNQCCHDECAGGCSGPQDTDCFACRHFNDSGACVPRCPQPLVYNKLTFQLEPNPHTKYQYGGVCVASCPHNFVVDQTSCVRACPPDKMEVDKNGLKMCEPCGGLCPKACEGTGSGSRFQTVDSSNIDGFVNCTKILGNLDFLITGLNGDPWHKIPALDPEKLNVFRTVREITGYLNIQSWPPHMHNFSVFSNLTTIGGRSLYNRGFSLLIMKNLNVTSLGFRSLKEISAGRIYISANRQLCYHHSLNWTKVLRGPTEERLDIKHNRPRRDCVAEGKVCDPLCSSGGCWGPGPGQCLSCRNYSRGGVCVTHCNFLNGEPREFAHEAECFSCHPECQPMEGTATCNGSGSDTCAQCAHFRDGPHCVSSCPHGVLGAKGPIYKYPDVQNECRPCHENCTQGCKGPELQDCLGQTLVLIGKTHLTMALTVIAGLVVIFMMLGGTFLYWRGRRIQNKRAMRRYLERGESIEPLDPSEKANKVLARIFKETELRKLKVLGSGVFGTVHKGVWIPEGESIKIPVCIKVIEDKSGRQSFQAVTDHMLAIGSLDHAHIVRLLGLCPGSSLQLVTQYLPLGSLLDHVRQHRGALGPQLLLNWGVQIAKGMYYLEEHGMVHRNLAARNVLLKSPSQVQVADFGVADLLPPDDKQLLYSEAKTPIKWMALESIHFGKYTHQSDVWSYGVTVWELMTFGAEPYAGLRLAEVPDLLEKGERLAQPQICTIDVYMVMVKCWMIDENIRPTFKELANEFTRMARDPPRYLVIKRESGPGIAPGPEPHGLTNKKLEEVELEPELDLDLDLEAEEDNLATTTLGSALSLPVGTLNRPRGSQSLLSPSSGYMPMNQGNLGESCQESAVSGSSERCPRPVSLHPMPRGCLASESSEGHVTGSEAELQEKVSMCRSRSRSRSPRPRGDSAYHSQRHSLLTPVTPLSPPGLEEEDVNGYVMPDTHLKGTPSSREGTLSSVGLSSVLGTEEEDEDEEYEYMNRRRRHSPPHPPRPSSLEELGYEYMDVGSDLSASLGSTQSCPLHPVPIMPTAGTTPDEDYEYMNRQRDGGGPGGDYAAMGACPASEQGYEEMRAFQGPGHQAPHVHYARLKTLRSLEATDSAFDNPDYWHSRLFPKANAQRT

[2] = molecular target: T2, EGFR-HER3 heteromer (Homo sapiens, UniProt P00533+P21860); experiment: RTK-HIT BRET between EGFR/Rluc8 and Grb2/Venus with untagged HER3 co-expressed
T2 construct: used to replace the C terminus of the full-length constructs (with or without Rluc8); host or cells: HEK293FT
Description: as §1, §2

[3] = molecular target: T2, EGFR-HER3 heteromer; experiment: RTK-HIT BRET between HER3/Rluc8 and Grb2/Venus with untagged EGFR co-expressed
Description: as §1, §2

[4] = 1 µM AG-1478, 20 nM agonist, kinetic

- inhibition of EGF-induced BRET ([1]; 1 µM AG-1478, 20 nM EGF, kinetic): effectively block
- BRET signal relative to baseline ([1]; 10 µM AG-1478, 20 nM EGF): below baseline
- pIC50, EGF stimulation ([1]; EGFR/Rluc8 + Grb2/Venus + pcDNA3, 20 nM EGF, about 60 minutes after agonist): 6.68±0.17 (n = 3)
- pIC50, HRG stimulation ([1]; EGFR/Rluc8 + Grb2/Venus + pcDNA3, 20 nM HRG (constitutive BRET), about 60 minutes after agonist): 6.31±0.08 (n = 3)
- inhibition of EGF-induced BRET ([1]; increasing concentrations of AG-1478, 20 nM EGF): completely inhibited
- inhibition of EGF- and HRG-induced BRET [2, 4]: abolished
- pIC50, EGF stimulation ([2]; EGFR/Rluc8 + Grb2/Venus + HER3, 20 nM EGF): 6.35±0.11 (n = 4)
- pIC50, HRG stimulation ([2]; EGFR/Rluc8 + Grb2/Venus + HER3, 20 nM HRG): 6.76±0.11 (n = 5)
- effect on constitutive BRET signal [3, 4]: strongly decreased
- inhibition of EGF- and HRG-induced BRET [3, 4]: completely blocked
- pIC50, EGF stimulation ([3]; HER3/Rluc8 + Grb2/Venus + EGFR, 20 nM EGF): 7.26±0.27 (n = 5)
- pIC50, HRG stimulation ([3]; HER3/Rluc8 + Grb2/Venus + EGFR, 20 nM HRG): 7.13±0.24 (n = 5)
Structure (SMILES): COc1cc2ncnc(Nc3cccc(Cl)c3)c2cc1OC.Cl [AG-1478, AG-1478 hydrochloride]
- effect on constitutive BRET ([1]; increasing concentrations of AG-1478, cells pretreated with HRG): dramatically reduced the BRET signal below the basal level

Reference: article PMC3659105, “Profiling Epidermal Growth Factor Receptor and Heregulin Receptor 3 Heteromerization Using Receptor Tyrosine Kinase Heteromer Investigation Technology” (PLoS ONE, 2013)
